Molecules are shown by their SMILES.

Chains of the proteins cited; added tags and fusions are not shown. A line that says so, or that is headed by a name, gives the form on record, which may keep a tag or linker.
Integrin alpha-IIb/beta-3 (Canis familiaris), as listed by the source: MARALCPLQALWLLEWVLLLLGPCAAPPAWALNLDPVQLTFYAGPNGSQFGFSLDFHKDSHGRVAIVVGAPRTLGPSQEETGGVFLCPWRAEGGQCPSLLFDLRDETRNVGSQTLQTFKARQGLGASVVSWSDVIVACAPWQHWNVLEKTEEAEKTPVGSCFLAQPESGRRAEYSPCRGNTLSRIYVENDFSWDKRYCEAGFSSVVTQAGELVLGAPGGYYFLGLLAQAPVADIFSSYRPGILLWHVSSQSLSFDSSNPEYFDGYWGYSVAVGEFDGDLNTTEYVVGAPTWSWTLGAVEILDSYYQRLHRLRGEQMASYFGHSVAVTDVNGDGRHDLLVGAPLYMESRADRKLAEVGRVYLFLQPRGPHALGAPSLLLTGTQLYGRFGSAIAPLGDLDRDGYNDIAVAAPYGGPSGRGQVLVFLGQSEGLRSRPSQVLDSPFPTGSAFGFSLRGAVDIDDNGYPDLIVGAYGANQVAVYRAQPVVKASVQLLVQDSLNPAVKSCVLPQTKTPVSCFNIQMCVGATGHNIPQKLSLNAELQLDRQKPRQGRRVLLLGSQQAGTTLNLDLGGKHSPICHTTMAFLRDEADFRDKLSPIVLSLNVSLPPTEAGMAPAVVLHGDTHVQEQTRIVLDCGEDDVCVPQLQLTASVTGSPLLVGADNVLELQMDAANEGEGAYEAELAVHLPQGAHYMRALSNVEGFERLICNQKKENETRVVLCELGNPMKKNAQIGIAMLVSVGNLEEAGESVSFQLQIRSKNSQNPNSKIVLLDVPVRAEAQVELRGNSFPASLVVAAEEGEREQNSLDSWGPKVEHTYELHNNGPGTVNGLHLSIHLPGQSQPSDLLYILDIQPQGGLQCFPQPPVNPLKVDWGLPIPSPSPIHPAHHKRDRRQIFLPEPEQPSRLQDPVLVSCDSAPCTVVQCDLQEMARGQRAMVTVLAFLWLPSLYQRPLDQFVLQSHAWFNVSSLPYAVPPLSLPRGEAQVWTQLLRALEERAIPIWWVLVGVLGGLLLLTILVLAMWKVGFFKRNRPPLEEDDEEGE

The assay concerns Integrin alpha-IIb/beta-3 (Canis familiaris). Nature of the assay: Inhibition of canine platelet-rich plasma induced by ADP. Details: concentration or dose not given beside the values. The settings on record: Canis lupus familiaris, concentration not given here.
The inhibition is the share of the control response that was lost under treatment. Compound `CC(=O)N[C@@H]1CSSC(C)(C)[C@H](C(N)=O)NC(=O)[C@@H](CC(=O)O)NC(=O)CNC(=O)[C@@H](CCCCN=C(N)N)NC1=O` showed an inhibition of 56%.

`CC(=O)N[C@@H]1CSSC(C)(C)[C@H](C(N)=O)NC(=O)[C@@H](CC(=O)O)NC(=O)CNC(=O)[C@@H](CCCCN)NC1=O` gave an inhibition of 27%.

`CC(=O)N[C@@H]1CSSC(C)(C)[C@H](C(N)=O)NC(=O)[C@H](CC(=O)O)NC(=O)CNC(=O)[C@H](CCCN=C(N)N)NC1=O`: the inhibition is 100%.

With `CC(=O)N[C@@H]1CSSC(C)(C)[C@H](C(N)=O)NC(=O)[C@@H](CC(=O)O)NC(=O)CNC(=O)[C@@H](CCCN=C(N)N)N(C)C1=O`, the inhibition is 100%.

In turn, `CC(=O)N[C@@H]1CSSC(C)(C)[C@H](C(N)=O)NC(=O)[C@H](CC(=O)O)NC(=O)CNC(=O)[C@@H](CCCN=C(N)N)NC1=O` had an inhibition of 100%.

Values taken from ChEMBL document CHEMBL1125778, “Development of a small RGD peptide fibrinogen receptor antagonist with potent antiaggregatory activity in vitro” (J Med Chem, 1991).
